Laboratory results from US20090075951A1, “Methods and Reagents for the Treatment of Inflammatory Disorders” (CombinatoRx, Inc., priority 2003, published 2009).

Test system: TNFα secretion from LPS stimulated white blood cells from human buffy coat
Test: TNFα secretion assay, LPS stimulation
Settings: Prednisolone 0.5 μM, Fluoxetine μM r5-r13: 0,0.23,0.45,0.9,1.8,3.6,7.2,14,29

CNCCC(Oc1ccc(C(F)(F)F)cc1)c1ccccc1 (stereo not shown) [Fluoxetine]
percent inhibition of TNFα secretion: 64.1%
